# AlphaSeq binding of Ab-95 light chain variants to a spike HR2 peptide

Target: peptide PDVDLGDISGINAS, taken from heptad repeat 2 (HR2) of SARS-CoV-2 spike.

Ab-95 is the parent antibody, in scFv form: VH, then a 15-residue (Gly4Ser)3 linker, then VL. The heavy chain is unchanged in all variants.
VH: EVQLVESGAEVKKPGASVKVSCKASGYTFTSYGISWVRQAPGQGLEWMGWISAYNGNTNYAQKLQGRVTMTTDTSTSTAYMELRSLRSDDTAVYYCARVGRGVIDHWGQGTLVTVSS
VL: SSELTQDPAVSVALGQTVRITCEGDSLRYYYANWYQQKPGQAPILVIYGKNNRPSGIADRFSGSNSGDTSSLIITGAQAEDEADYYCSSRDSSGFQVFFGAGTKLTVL

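The starting antibody came from a phage panning campaign against this peptide. AAYL52 was designed without a model: most single CDR substitutions and a random sample of double and triple ones. The assay is AlphaSeq: two haploid yeast populations carry antibody and antigen on their surface. The frequency of each diploid, read from paired DNA barcodes, reflects how well the two displayed proteins bind. The ratio of observed to expected reads was calibrated, replicate by replicate, on BCL2-family standards whose Kd was known from biolayer interferometry. The assay was run in three technical replicates.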

Positions count from residue 1 of the parent VL; N33H puts H in place of N. All variants listed here change R90 of the VL, counted from its first residue. Values are apparent Kd, the geometric mean of the replicates that gave a signal; lower means stronger binding. A pair that was not seen in any replicate is written "nd"; this usually means weak binding, but a binder can also be missed. Nonspecific signal, from three strains lacking the peptide, appeared in 28% of pairings of library AAYL52, centred on 8.2 µM (5% of these signals below 800 nM); values are not corrected for it. Parent in this assay: reference entry 200 nM, copy in this library 180 nM.

- N33H S55F R90K: nd (0 of 3 replicates)
- N52C S89Q R90T: 150 µM (1 of 3 replicates)
- N33G R90V: 3.9 µM (3 of 3 replicates)
- R90C: 320 nM (3 of 3 replicates)
- G24I L27N R90N: 2.4 µM (3 of 3 replicates)
- N52G R90N: 910 nM (3 of 3 replicates)
- N51M R90A F98V: 810 nM (2 of 3 replicates)
- N51Y R53Q R90T: 7.3 µM (3 of 3 replicates)
- G24L N33F R90M: 5.4 µM (1 of 3 replicates)
- N51C S88L R90Y: 68 µM (2 of 3 replicates)
- G24I S26Q R90C: 300 nM (1 of 3 replicates)
- A32R S89W R90V: 5.5 µM (1 of 3 replicates)
- R90S: 6.0 µM (3 of 3 replicates)
- L27E Y31V R90A: 7.9 µM (3 of 3 replicates)
- R53A R90G V97L: nd (0 of 3 replicates)
- A32G R90P: 130 nM (3 of 3 replicates)
- D25M R90S: 6.6 µM (2 of 3 replicates)
- L27R Y29E R90D: 2.7 µM (3 of 3 replicates)
- R28Q G49A R90I: 10 µM (1 of 3 replicates)
- R53V R90E S92Q: 11 µM (1 of 3 replicates)
- Y30P R90Y S93A: 9.6 µM (3 of 3 replicates)
- L27N Y31M R90F: 1.5 µM (3 of 3 replicates)
- S55Y R90F F95V: 130 nM (3 of 3 replicates)
- D25H S88H R90V: 5.9 µM (3 of 3 replicates)
- S89Y R90D D91K: 160 nM (3 of 3 replicates)
- R28N R90C V97E: 410 nM (3 of 3 replicates)
- S26W R90Y S93K: 17 µM (1 of 3 replicates)
- Y31T R90Q: 290 nM (3 of 3 replicates)
- G49W R90K: nd (0 of 3 replicates)
- G24S Y29Q R90T: 2.5 µM (3 of 3 replicates)
- S89K R90W S92L: 180 nM (3 of 3 replicates)
- A32T R90K D91A: 3.9 µM (2 of 3 replicates)
- R90Q S93P G94L: 12 µM (2 of 3 replicates)
- A32M R90G S93I: 2.3 µM (2 of 3 replicates)
- S55C R90A G94A: 2.1 µM (1 of 3 replicates)
- S88G R90D S93A: 1.3 µM (3 of 3 replicates)
- G24K P54M R90Q: 16 µM (1 of 3 replicates)
- Y31H R53Q R90I: 1.7 µM (2 of 3 replicates)
- N51D R90K S92A: 210 nM (3 of 3 replicates)
- R90D D91C G94Q: nd (0 of 3 replicates)
- R90D S93H F98S: 1.5 µM (3 of 3 replicates)
- R90L Q96G: 420 nM (3 of 3 replicates)
- N52E S88K R90H: 20 µM (1 of 3 replicates)
- S88Y R90F Q96D: 11 µM (2 of 3 replicates)
- S26Q S88H R90Q: 20 µM (1 of 3 replicates)
- R90C D91E V97N: 400 nM (3 of 3 replicates)
- Y31S N51L R90V: 23 µM (3 of 3 replicates)
- R28I R90Y V97F: 480 µM (1 of 3 replicates)

Source: Engelhart et al. 2022 (doi:10.1038/s41597-022-01779-4), MIT Lincoln Laboratory and A-Alpha Bio; data file from the FLAb repository.